# scFv variants of Ab-95 (light chain) against a SARS-CoV-2 spike peptide

Source: Engelhart et al. 2022 (doi:10.1038/s41597-022-01779-4), MIT Lincoln Laboratory and A-Alpha Bio; data file from the FLAb repository.

The target is the same throughout: PDVDLGDISGINAS, from the HR2 region of SARS-CoV-2 spike.

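Library AAYL52 holds single substitutions and randomly drawn double and triple substitutions in the CDRs. The scFvs were displayed on barcoded MATa yeast, the peptide on MATalpha yeast. Mating (16 h, 30 °C) was followed by selection of diploids and sequencing of their barcodes. Scores were corrected for input abundance and mapped to Kd with protein pairs of known affinity run in the same pool. The assay was run in three technical replicates.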

Ab-95 is the parent antibody, in scFv form: VH, then a (GGGGS)3 linker, then VL. The heavy chain is unchanged in all variants.
VH: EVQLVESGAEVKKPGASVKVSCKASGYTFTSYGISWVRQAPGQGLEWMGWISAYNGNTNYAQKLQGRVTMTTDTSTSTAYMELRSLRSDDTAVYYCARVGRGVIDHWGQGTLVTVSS
VL: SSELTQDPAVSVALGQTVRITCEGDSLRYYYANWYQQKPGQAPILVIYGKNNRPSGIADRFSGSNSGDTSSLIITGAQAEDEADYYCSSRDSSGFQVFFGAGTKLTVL

Positions count from residue 1 of the parent VL; Y29M puts M in place of Y. This list gathers variants with a substitution at P54 (VL, numbered from residue 1). Values are log10 of the apparent Kd in nM; lower means stronger binding. The mean shown is taken over the replicates in which the pair was detected. An entry "nd" has no value in the source: the pair was not observed among the diploids in any replicate. This suggests poor binding but is not conclusive. As a blank, each scFv also met three strains without target: over library AAYL52, 28% of these pairings were detected, typically at 3.91 and seldom below 2.90. Also given: how often the same scFv was detected with the empty control strains.

The variant Y29M/N52W/P54T showed 2.58 (1 of 3 replicates; controls 1 of 9).
The variant P54Y/S89P showed 3.25 (3 of 3 replicates; controls 5 of 9).
The variant Y30L/P54F/F95D showed 3.10 (3 of 3 replicates; controls 6 of 9).
The variant Y29R/Y30G/P54D showed 1.14 (3 of 3 replicates; controls 2 of 9).
The variant R53S/P54G/S92L showed 3.26 (3 of 3 replicates; controls 3 of 9).
The variant S26L/P54M/V97N showed 3.90 (2 of 3 replicates; controls 0 of 9).
The variant Y30C/P54W/S92R showed 2.82 (3 of 3 replicates; controls 2 of 9).
The variant E23H/Y30M/P54N showed 1.11 (3 of 3 replicates; controls 6 of 9).
The variant P54Q/S88T/G94S showed 2.69 (3 of 3 replicates; controls 4 of 9).
The variant S26H/P54H/S92P showed 3.66 (3 of 3 replicates; controls 0 of 9).
The variant G24A/P54W/S55E showed 3.07 (2 of 3 replicates; controls 4 of 9).
The variant P54C/S88V/V97P showed 4.10 (1 of 3 replicates; controls 3 of 9).
The variant P54V showed 2.43 (3 of 3 replicates; controls 3 of 9).
The variant P54K/Q96M/V97R showed 3.31 (3 of 3 replicates; controls 3 of 9).
The variant P54H/F95A/V97N showed 3.08 (3 of 3 replicates; controls 2 of 9).
The variant P54K/S92Y/F98A showed 4.20 (3 of 3 replicates; controls 4 of 9).
The variant E23D/P54E/Q96W showed 3.50 (1 of 3 replicates; controls 2 of 9).
The variant R53F/P54G/R90S showed 4.05 (1 of 3 replicates; controls 2 of 9).
The variant Y30T/P54A/S88Y showed 2.88 (3 of 3 replicates; controls 0 of 9).
The variant E23I/P54D/Q96E showed 3.57 (2 of 3 replicates; controls 3 of 9).
The variant P54K/F95R/Q96L showed 3.53 (2 of 3 replicates; controls 3 of 9).
The variant K50F/P54V/R90P showed 4.56 (2 of 3 replicates; controls 3 of 9).
The variant R28T/P54N/G94A showed 2.33 (1 of 3 replicates; controls 1 of 9).
The variant R28K/P54F/G94K showed 3.11 (3 of 3 replicates; controls 2 of 9).
The variant E23A/P54M showed 1.83 (3 of 3 replicates; controls 3 of 9).
The variant G24V/R53E/P54V showed 4.60 (1 of 3 replicates; controls 1 of 9).
The variant N51L/P54T/S55V showed nd (0 of 3 replicates; controls 1 of 9).
The variant S26F/L27A/P54H showed 4.85 (1 of 3 replicates; controls 2 of 9).
The variant L27H/P54S/S55C showed 5.53 (1 of 3 replicates; controls 3 of 9).
The variant Y31N/P54I/S55A showed 1.70 (3 of 3 replicates; controls 1 of 9).
The variant L27T/K50Q/P54E showed nd (0 of 3 replicates; controls 1 of 9).
The variant R28S/P54W/S89I showed 2.72 (3 of 3 replicates; controls 0 of 9).
The variant Y31L/A32H/P54Q showed nd (0 of 3 replicates; controls 2 of 9).